{
  "source": "patent US7799795B2",
  "about": "“Aryl nitrile compounds and compositions and their uses in treating inflammatory and related disorders” (Amgen Inc., priority 2005, dated 2010)",
  "key": {"[1]": {"biological_target": "T1, CXCR3 (Homo sapiens, UniProt P49682)", "T1 construct": "ChemoCentryx", "T1 sequence (P49682 1-368)": "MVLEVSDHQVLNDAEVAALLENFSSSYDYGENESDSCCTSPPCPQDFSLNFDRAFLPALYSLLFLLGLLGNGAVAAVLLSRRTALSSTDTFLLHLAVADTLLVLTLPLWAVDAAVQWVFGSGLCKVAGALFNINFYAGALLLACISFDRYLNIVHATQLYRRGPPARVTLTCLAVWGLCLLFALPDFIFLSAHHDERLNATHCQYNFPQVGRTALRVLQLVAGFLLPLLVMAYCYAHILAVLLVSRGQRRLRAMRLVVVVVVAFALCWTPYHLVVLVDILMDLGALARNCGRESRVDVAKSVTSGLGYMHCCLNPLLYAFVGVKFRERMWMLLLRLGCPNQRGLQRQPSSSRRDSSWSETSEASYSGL", "experiment": "CXCR3 binding assay in binding buffer (125I-labelled chemokine, CXCR3-expressing cells)", "conditions": "absence of human plasma", "method": "(§1) CXCR3 Binding Assay: CXCR3 binding assays were conducted as previously described (see, e.g., Example 12 in WO 02/083143, incorporated herein by reference in its entirety), in the absence (“binding buffer”) or presence of human plasma. Unless otherwise noted, all reagents used are available from commercial sources (e.g., Sigma-Aldrich, St. Louis, Mo., USA). Test compounds are diluted in DMSO to a concentration that is 40-times the intended final assay concentration; 5 μL are transferred to each well of a 96-well flat-bottomed polypropylene plate (e.g., from Greiner, Inc.). CXCR3-expressing cells obtained from ChemoCentryx were used in the assays to generate the data set forth below. […] The plates are counted on a scintillation counter, such as a Packard TopCount. […] Data were analyzed using commercially available software (e.g., Excel from Microsoft, Prism from GraphPad Software Inc.)."}, "[2]": {"biological_target": "T1, CXCR3", "experiment": "CXCR3 binding assay in presence of human plasma", "method": "as §1"}},
  "data": [
    {"molecule": "CCS(=O)(=O)CCN(C(=O)Cc1ccc(F)c(C(F)(F)F)c1)[C@H](C)c1nc2ccccn2c(=O)c1-c1ccc(C#N)cc1", "values": [
      {"measurement": "IC50", "setting": "[1]", "result": 2, "unit": "nM"},
      {"measurement": "IC50", "setting": "[2]", "result": 17, "unit": "nM"}
    ]},
    {"molecule": "CCS(=O)(=O)CCN(C(=O)Cc1ccc(F)c(C(F)(F)F)c1)[C@H](C)c1nc2ncccc2c(=O)n1-c1ccc(C#N)cc1", "note": "[drawing 192]", "values": [
      {"measurement": "IC50", "setting": "[1]", "result": 11, "unit": "nM"},
      {"measurement": "IC50", "setting": "[2]", "result": 25, "unit": "nM"}
    ]}
  ]
}
